{"source": "ChEMBL document CHEMBL3853313", "about": "“Iminoguanidines as Allosteric Inhibitors of the Iron-Regulated Heme Oxygenase (HemO) of Pseudomonas aeruginosa” (J Med Chem, 2016)", "key": {"[1]": {"target": "T1, Heme oxygenase (Pseudomonas aeruginosa) (UniProt O69002)", "T1 sequence (whole entry)": "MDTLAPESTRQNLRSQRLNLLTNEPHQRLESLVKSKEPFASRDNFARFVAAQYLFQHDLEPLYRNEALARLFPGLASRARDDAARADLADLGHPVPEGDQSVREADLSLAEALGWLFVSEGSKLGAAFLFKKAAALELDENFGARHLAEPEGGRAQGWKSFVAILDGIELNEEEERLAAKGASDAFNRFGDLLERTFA", "experiment": "Binding affinity to Pseudomonas aeruginosa apo-HemO (76 to 84 residues) by HXMS method"}, "[2]": {"target": "T1, Heme oxygenase (Pseudomonas aeruginosa)", "experiment": "Binding affinity to Pseudomonas aeruginosa apo-HemO (92 to 102 residues) by HXMS method"}}, "note": "Activity calls are given as the source filed them. The calls are words filed in the database; no cut-off is given here."}
{"smiles": "CN(C)c1ccc(/C=N/NC(=N)N)cc1.Cl", "values": [{"measurement": "Activity", "setting": "[1]", "value": "Active"}, {"measurement": "Activity", "setting": "[2]", "value": "Active"}]}
